Consider four molecules from patent US20260327336 (published 2026).

Assay [1] deals with T1, HER2 (human, UniProt P04626). The assay is described as follows: BLI, 30C, ExpiCHO-expressed. (BLI is a label-free optical method that tracks binding on a fibre tip over time.)
Assay [2] concerns the target T1, HER2. The assay is described as follows: BLI, 30C, E. coli-expressed.
For assay [3], the target named is T1, HER2. The assay is described as follows: BLI, 30C, E. coli-expressed, bivalent analysis.

B1: HL_SS+ (antibody, V domains shown)
VH: [not shown - about 120 residues]
VL: DIQMTQSPSSLSASVGDRVTITCRASQDVNTAVAWYQQKPGKAPKLLIYSASFLYSGVPSRFSGSRSGTDFTLTISSLQPEDFATYYCQQHYTTPPTFGCGTKVEIKR
In assay [1], B1 registered a Kd of less than 0.001 nM.

B2: HL_SSC (antibody, V domains shown)
VH: not shown
VL: DIQMTQSPSSLSASVGDRVTITCRASQDVNTAVCWYQQKPGKAPKLLIYSASFLYSGVPSRFSGSRSGTDFTLTISSLQPEDFATYYCQQHYTTPPTFGQGTKVEIKR
B2: the Kd in assay [1] is less than 0.001 nM; in assay [2], 0.145 nM.

B3: LH_SSC (antibody, V domains shown)
VH: not shown
VL: DIQMTQSPSSLSASVGDRVTITCRASQDVNTAVCWYQQKPGKAPKLLIYSASFLYSGVPSRFSGSRSGTDFTLTISSLQPEDFATYYCQQHYTTPPTFGQGTKVEIKR
Take B3: the Kd in assay [1] came to 0.661 nM; in assay [3], 1.3 nM.

B4: LH_SS+ (antibody, V domains shown)
VH: [not shown - about 120 residues]
VL: DIQMTQSPSSLSASVGDRVTITCRASQDVNTAVAWYQQKPGKAPKLLIYSASFLYSGVPSRFSGSRSGTDFTLTISSLQPEDFATYYCQQHYTTPPTFGCGTKVEIKR
The molecule B4 showed a Kd in assay [1] of less than 0.001 nM.
